The inhibition is the change of the read-out against control, counted positive when it falls.

The chains behind the UniProt entries cited, without tags or fusion partners. Where a name states a change or a piece, a line headed by the entry shows the natural chain unless it says otherwise.
UniProt P24468: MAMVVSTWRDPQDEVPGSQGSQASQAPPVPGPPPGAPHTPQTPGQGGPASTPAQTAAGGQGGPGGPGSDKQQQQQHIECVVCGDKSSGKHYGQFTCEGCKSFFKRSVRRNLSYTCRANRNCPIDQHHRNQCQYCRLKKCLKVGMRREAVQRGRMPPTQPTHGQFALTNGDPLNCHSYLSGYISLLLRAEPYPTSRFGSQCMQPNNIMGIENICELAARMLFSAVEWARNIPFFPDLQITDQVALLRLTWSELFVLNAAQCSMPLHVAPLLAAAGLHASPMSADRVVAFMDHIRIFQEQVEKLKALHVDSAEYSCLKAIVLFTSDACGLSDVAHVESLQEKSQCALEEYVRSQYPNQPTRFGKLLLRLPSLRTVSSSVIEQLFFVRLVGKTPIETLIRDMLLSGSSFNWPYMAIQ

Only a part is listed here, and it is no random draw. Active and inactive are the calls of the source.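 Rule for the calls: active = inhibition above a per-plate cutoff, mean inhibition of test wells between control levels plus 3 SD (cut at about 38% in these data); inactive = the rest.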

For this assay, the target named is COUP transcription factor 2 (Homo sapiens) (UniProt P24468). Kind of assay: COUP-TFII reporter suppression in human cells – cell-based, luciferase reporter, HEK293T, luminescence, primary screen (AID 686940).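 Note: cells cotransfected with COUP-TFII expression vector driving the NGFI-A reporter; 0% = median of COUP-TF2 test wells and 100% = reporter-only cells.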 Particulars: HEK293T NGFI-A luciferase reporter, at 8.6 µM, stronger effect = higher value. On the technique in general: Reporter assays use an easily measured gene product as a stand-in for the process of interest.
Turning to `CC(C)C(=O)NC(Sc1ccccc1)C(Cl)(Cl)Cl` (stereo not drawn), the inhibition was inactive: 11%.
With `O=P(Nc1nccs1)(c1ccccc1)c1ccccc1` the figure was inactive: -1.94%.
Under `c1nnnn1CCn1cnnn1` stands inactive: 15.6%; under `O=[As](O)(c1ccccc1)c1ccc(O)cc1`, inactive: -19.3%.
Under `O=[N+]([O-])c1ncn(CCn2cnc([N+](=O)[O-])n2)n1` stands inactive: -5.17%.
On to `CC(=O)NC(SC(=S)N(C)C)C(Cl)(Cl)Cl` (stereo not drawn), for which the inhibition was inactive: 19.2%.
With `O=C(OC1CN2CCC1CC2)c1cccc(Cl)c1` (stereo not drawn) the figure was inactive: 1.38%; with `Nc1ccc([As](=O)(O)c2ccc([N+](=O)[O-])cc2)cc1`, inactive: -15.9%.
Under `C(Cc1nn[nH]n1)Cc1nn[nH]n1` stands inactive: -7.71%.
With `C/C(N)=N\P(=O)(OCc1ccccc1)OCc1ccccc1` the figure was inactive: 9.89%.
For `O=P(Nc1ccccn1)(c1ccc(Br)cc1)c1ccc(Br)cc1`, the inhibition is inactive: -3.51%.
For `CN(C)C1(CNC(=O)c2ccc(Cl)c(S(N)(=O)=O)c2)CCCCC1`, the inhibition was inactive: 32.5%.
With `Nc1ccc(CCCCOc2ccccc2)cc1` the figure was inactive: 2.88%; with `COc1ccc(N)c([N+](=O)[O-])c1[N+](=O)[O-]`, inactive: -9.87%.
Under `C[C@H]1OP(=O)(Oc2ccccc2)[C@H](O)[C@H](O)[C@H]1N=[N+]=[N-]` (stereo partly drawn) stands inactive: -7.13%; under `O=P(Nc1nc2ccccc2s1)(c1ccccc1)c1ccccc1`, inactive: 10.8%.
With `CCC(=O)N1C2C3N(C(=O)CC)C1C1N(C(=O)CC)C(C(N1C(=O)CC)N3C(=O)CC)N2C(=O)CC` the figure was inactive: 8.86%; with `O=C(OC1CN2CCC1CC2)c1ccccc1` (stereo not drawn), inactive: 19.2%; with `Cc1ccc(OP(=O)(Nc2ccccn2)Oc2ccc(C)cc2)cc1`, inactive: 5.63%.
As for `CC(=O)NC(SC(=S)N(CC(C)C)CC(C)C)C(Cl)(Cl)Cl` (stereo not drawn), the inhibition was inactive: 1.22%.
With `COC(=O)c1cc2c(s1)N=C(c1ccccc1)N(C)P2(=O)N1CCOCC1` (stereo not drawn) the figure was inactive: 9.84%.
With `CN(C)C(=O)Oc1noc2ccccc12` the figure was inactive: -11.8%; with `O=c1c2cc([N+](=O)[O-])ccc2[nH]c2c([N+](=O)[O-])cc([N+](=O)[O-])cc12`, inactive: 5.66%; with `Cc1ccccc1OP(=O)(Nc1ccccn1)Oc1ccccc1C`, inactive: -12.6%.
Under `CC(NC(=O)COC(=O)C(O)(c1ccccc1)c1ccccc1)c1ccccc1` (stereo not drawn) stands inactive: -16.3%; under `Cc1ccc(NP(=O)(Oc2cccc(C)c2)Oc2cccc(C)c2)nc1`, inactive: -13.8%.
Turning to `c1ccc(-c2nn[nH]n2)c(-c2nn[nH]n2)c1`, the inhibition is inactive: -23%.
For the compound `CCNC(=S)/N=C(\N)N[N+](=O)[O-]`, the inhibition was inactive: -10.6%.
